Laboratory results as given in patent US20240166603A1, “Method of Treating Cancer With Atpenin A5 Derviatives” (Texas Tech University System, priority 2018, published 2024).

Amino acid sequences for entries named in this document (tags omitted). A change or cut given only in a name is not applied to a line headed by its entry.
UniProt P21913: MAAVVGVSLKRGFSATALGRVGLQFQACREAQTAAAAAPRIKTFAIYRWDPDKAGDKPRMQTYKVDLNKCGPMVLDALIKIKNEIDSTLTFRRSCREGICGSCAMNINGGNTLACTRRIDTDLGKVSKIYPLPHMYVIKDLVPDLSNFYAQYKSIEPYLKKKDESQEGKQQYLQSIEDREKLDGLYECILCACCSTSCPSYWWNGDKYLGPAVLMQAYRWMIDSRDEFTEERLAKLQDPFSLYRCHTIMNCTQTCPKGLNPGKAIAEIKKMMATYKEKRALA
UniProt Q641Z9: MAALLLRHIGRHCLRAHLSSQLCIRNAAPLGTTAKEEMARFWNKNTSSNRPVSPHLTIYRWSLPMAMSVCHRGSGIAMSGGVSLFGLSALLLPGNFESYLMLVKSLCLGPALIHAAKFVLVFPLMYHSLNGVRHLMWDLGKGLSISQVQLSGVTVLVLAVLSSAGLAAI
UniProt Q6PCT8: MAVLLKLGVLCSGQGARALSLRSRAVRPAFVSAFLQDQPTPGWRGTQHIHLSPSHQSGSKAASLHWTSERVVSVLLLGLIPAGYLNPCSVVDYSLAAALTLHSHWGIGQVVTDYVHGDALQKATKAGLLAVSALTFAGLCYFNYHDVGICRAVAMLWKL

Target: mitochondrial complex II (CII) (Rattus norvegicus, UniProt P21913+Q641Z9+Q6PCT8)
Assay: Complex II inhibition assay, isolated rat heart mitochondria
Conditions: LLE = pIC50-ClogP

CCCCCCCCCC(=O)c1c(O)nc(OC)c(OC)c1O
LLE (Ligand-Lipophilicity Efficiency): 4.69
